Source: PubChem BioAssay (Tox21)
The list shows a part of the results, in another mix than the full data. Results filed as inconclusive are left out. The source made the active and inactive calls. Unless noted, calls come from the whole dose curve; as a rule, active = well fitted curve in the direction sought with a large enough effect in the repeat runs; inconclusive = weak or mixed curves; inactive = no such curve, though single readings can be large; an effect the other way counts as inactive or inconclusive.

By UniProt entry, the sequences of proteins in these tests, tags left out.
UniProt P11511, whole entry: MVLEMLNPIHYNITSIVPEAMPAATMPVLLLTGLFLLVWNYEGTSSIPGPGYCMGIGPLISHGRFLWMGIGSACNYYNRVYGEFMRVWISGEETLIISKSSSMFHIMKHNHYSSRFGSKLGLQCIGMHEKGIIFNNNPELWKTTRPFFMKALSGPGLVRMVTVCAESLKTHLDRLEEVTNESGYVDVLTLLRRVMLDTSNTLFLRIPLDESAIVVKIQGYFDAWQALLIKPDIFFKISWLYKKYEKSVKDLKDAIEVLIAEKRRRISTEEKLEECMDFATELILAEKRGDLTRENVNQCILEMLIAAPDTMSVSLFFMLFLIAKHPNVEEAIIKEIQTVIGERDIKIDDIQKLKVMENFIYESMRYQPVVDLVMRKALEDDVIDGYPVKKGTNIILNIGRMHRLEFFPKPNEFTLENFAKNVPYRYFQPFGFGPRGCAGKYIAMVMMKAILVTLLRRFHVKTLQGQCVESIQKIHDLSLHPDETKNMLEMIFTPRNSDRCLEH
UniProt Q14994, whole entry: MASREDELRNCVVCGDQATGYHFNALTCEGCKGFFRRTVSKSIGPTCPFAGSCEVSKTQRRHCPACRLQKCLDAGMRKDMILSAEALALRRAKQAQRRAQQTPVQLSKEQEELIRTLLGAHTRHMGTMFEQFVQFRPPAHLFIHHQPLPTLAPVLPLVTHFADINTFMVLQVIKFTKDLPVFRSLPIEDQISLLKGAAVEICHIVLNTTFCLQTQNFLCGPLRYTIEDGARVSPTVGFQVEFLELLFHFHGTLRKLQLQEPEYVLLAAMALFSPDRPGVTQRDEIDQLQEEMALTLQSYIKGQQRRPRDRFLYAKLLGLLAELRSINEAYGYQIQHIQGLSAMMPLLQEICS
UniProt Q92731, whole entry: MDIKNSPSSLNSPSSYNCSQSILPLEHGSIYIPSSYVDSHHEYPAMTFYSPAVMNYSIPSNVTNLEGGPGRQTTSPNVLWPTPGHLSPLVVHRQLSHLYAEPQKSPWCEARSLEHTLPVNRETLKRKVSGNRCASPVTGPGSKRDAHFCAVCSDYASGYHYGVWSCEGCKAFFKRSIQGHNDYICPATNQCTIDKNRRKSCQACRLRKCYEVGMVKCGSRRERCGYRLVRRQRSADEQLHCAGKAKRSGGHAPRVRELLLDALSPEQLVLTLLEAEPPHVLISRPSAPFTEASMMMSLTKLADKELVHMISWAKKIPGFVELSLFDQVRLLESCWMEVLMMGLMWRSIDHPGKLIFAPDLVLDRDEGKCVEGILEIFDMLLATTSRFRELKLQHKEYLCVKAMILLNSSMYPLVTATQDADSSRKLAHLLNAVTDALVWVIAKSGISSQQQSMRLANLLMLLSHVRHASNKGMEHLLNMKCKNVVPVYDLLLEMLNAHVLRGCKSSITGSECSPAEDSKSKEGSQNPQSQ
UniProt P34981, whole entry: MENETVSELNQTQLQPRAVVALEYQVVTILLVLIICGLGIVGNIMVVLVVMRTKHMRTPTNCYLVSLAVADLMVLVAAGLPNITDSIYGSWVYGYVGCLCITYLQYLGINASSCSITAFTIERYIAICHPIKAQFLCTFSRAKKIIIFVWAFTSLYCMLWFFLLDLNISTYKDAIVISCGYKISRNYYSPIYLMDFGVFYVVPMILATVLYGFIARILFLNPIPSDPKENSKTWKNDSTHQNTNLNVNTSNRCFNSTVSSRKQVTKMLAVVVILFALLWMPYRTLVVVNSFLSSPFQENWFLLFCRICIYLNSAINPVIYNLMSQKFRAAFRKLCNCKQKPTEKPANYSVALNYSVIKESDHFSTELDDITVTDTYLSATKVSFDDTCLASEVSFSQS

Columns and labels:
[1] = qHTS assay for small molecule disruptors of the mitochondrial membrane potential - cell viability (AID 720634; calls by dose curve; note: potency is the fitted concentration of half-maximal effect; nearly all actives have a fitted effect of over 20% in size); conditions: HepG2 viability, ATP luminescence (CellTiter-Glo), 1 h
In short: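 Measuring cytotoxicity alongside mitochondrial potential, the screen quantified ATP by luminescence in HepG2 cells after 1 hr compound incubation and a 30 min room-temperature CellTiter-Glo step.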

Aromatase (Homo sapiens) = Aromatase (Homo sapiens) (UniProt P11511); experiment: qHTS assay to identify aromatase inhibitors (AID 743083); conditions: MCF-7 aro ERE, testosterone-driven ERE luciferase, 24 h; series mostly up to 70.3 µM; note: potency is the fitted concentration of half-maximal effect; nearly all actives have a fitted effect of over 55% in size
[2] = qHTS assay to identify small molecule antagonists of the peroxisome proliferator-activated receptor delta (PPARd) signaling pathway - cell viability counter screen (AID 743213); conditions: PPARd-bla HEK293H viability, CellTiter-Glo luminescence, 17 h; note: potency is the fitted concentration of half-maximal effect; nearly all actives have a fitted effect of over 50% in size
In short: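 PPARd-bla HEK293H cells were treated with compounds plus agonist L165041 (300 nM final) for 17 h at 37 C. Viability was then read in the same wells by CellTiter-Glo luminescence after 30 min at room temperature.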

[3] = target: Nuclear receptor subfamily 1 group I member 3 (Homo sapiens) (UniProt Q14994); experiment: qHTS assay to identify small molecule agonists of the constitutive androstane receptor (CAR) signaling pathway (AID 1224839); conditions: HepG2 hCAR CYP2B6-luciferase, agonist mode, 24 h; series mostly up to 92.4 µM; note: potency is the fitted concentration of half-maximal effect; nearly all actives have a fitted effect of over 15% in size
[4] = qHTS assay to identify small molecule antagonists of the estrogen related receptor signaling pathway with the pleiotropic PPARgamma coactivator (PGC) from Tox21 10K library (AID 1224841; call rule not given here; note: potency is the fitted concentration of half-maximal effect; actives are mostly falling curves and most rising ones were filed inactive; nearly all actives have a fitted effect of over 50% in size); conditions: PGC/ERR reporter cell line, ONE-Glo luciferase, 18 h
[5] = qHTS assay to identify small molecule antagonists of the estrogen related receptor (ERR) signaling pathway from Tox21 library (AID 1224848); conditions: ERR reporter cell line, luciferase antagonist mode, 18 h; note: potency is the fitted concentration of half-maximal effect; nearly all actives have a fitted effect of over 50% in size
In short: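 Cells: ERR line, 2,000/well; 6 h preincubation 37 C/5% CO2. Cpd in DMSO via pin tool; 18 h, 37 C. ONE-Glo, 30 min RT, luminescence.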

[6] = qHTS RealTime-Glo MT Cell Viability Assay in HEK293 cells - 40 hour (AID 1224874); conditions: RealTime-Glo luminescence; note: potency is the fitted concentration of half-maximal effect; nearly all actives have a fitted effect of over 50% in size
In short: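 Tox21 screen in HEK293 using RealTime-Glo MT chemistry, with cells and reagent co-dispensed. Luminescence proportional to viable cell number was captured at intervals during 40 h compound exposure at 37 C.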

[7] = target: Estrogen receptor beta (Homo sapiens) (UniProt Q92731); experiment: qHTS assay to identify small molecule antagonists of the estrogen receptor beta (ER-beta) signaling pathway (AID 1259378; active = well fitted inhibition curve with a large enough effect in the signal ratio in the repeat runs, not every such curve was filed as active; the % refers to the signal ratio; note: potency is the fitted concentration of half-maximal effect); conditions: ER-beta-UAS-bla HEK293T, beta-lactamase FRET ratio, 16 h
In short: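 ER-beta-UAS-bla HEK293T (GripTite) cells in 2% charcoal-stripped FBS medium were preincubated 6 hr at 37C, dosed with compound, then stimulated with 1 nM E2 (final) for 16 hr; beta-lactamase reporter read by B/G FRET fluorescence after 2 hr substrate loading.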

[8] = qHTS assay to identify small molecule antagonists of the estrogen related receptor (ERR) signaling pathway from Tox21 library - cell viability counter screen (AID 1224834); conditions: ERR reporter cells viability, CellTiter-Fluor, 17.5 h; series mostly up to 92.4 µM; note: potency is the fitted concentration of half-maximal effect; nearly all actives have a fitted effect of over 30% in size
In short: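 CellTiter-Fluor fluorescence measured; ERR cells; 17.5 h compound incubation at 37 C; 30 min reagent step.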

[9] = A CellTox Green Cytotoxicity Assay to monitor cytotoxicity in HepG2 cells - 40 hour (AID 1224879); conditions: CellTox Green fluorescence; series mostly up to 35.3 µM; note: % is set by controls: 0 for no effect and ±100 for the full control effect; nearly all actives have a fitted effect of over 40% in size
In short: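 Nonlytic assay: viable cells exclude the dye, so fluorescence scales with cell death. HepG2 at 600 cells/well, compounds added after 5 h, signal read across 40 h.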

[10] = target: Thyrotropin-releasing hormone receptor (Homo sapiens) (UniProt P34981); experiment: qHTS assay to identify small molecule antagonists of the thyrotropin-releasing hormone receptor (TRHR) signaling pathway (AID 1346877; active = well fitted inhibition curve with a large enough effect in the repeat runs, not every such curve was filed as active; note: % is set by controls: 0 for no effect and ±100 for the full control effect); conditions: TRHR-HEK293, TRH-induced calcium fluorescence, antagonist mode; at 51.3 µM (top of the series)
[11] = qHTS assay for small molecules that induce genotoxicity in human embryonic kidney cells expressing luciferase-tagged ATAD5 - cell viability (AID 651634; calls by dose curve; note: potency is the fitted concentration of half-maximal effect; nearly all actives have a fitted effect of over 25% in size); conditions: HEK293T ATAD5-luc cells viability, CellTiter-Fluor, 15.5 h
In short: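 Seeding of 2,000 HEK293T ATAD5-luciferase cells per well preceded pin-tool compound transfer. Plates sat 15.5 hr at 37C under 5% CO2, then fluorescence was read after 30 min with CellTiter-Fluor.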

[12] = qHTS assay for identifying genotoxic compounds that show differential cytotoxicity against isogenic chicken DT40 cell lines with known DNA damage response pathways - Rev3 mutant cell line (AID 743014); conditions: chicken DT40 Rev3-/- viability, CellTiter-Glo, 40 h; note: potency is the fitted concentration of half-maximal effect; nearly all actives have a fitted effect of over 55% in size
[13] = qHTS assay to identify small molecule antagonists of the androgen receptor (AR) signaling pathway using the MDA cell line - cell viability counter screen (AID 743041; note: potency is the fitted concentration of half-maximal effect; nearly all actives have a fitted effect of over 45% in size); conditions: MDA-kb2 viability, CellTiter-Fluor, 16 h; cells co-treated with R1881 androgen agonist
In short: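 MDA-kb2 AR-luc human breast carcinoma cells (MMTV-luciferase, AR/GR responsive) were treated with compounds plus R1881 agonist for 16 h at 37 °C. Viability was read as CellTiter-Fluor fluorescence in the same wells as the reporter assay.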

[14] = qHTS assay to identify small molecule antagonists of the estrogen receptor alpha (ER-alpha) signaling pathway using the BG1 cell line - cell viability counter screen (AID 743081); conditions: BG1Luc4E2 viability, CellTiter-Fluor, 22 h; series mostly up to 32.5 µM;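 note: compound given together with 17beta-estradiol as the ER stimulus; potency is the fitted concentration of half-maximal effect; nearly all actives have a fitted effect of over 45% in size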
[15] = qHTS assay to identify small molecule agonists of the estrogen receptor beta (ER-beta) signaling pathway - cell viability counter screen (AID 1259380); conditions: ER-beta-bla HEK293T viability, CellTiter-Glo luminescence, 16 h; note: potency is the fitted concentration of half-maximal effect; nearly all actives have a fitted effect of over 30% in size
In short: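 Cells used were ER-beta-UAS-bla HEK293T in medium with 2% charcoal-stripped FBS. They were treated for 16 hr at 37C. Viability came from CellTiter-Glo luminescence.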

[16] = qHTS assay to identify small molecule agonists of the estrogen receptor alpha (ER-alpha) signaling pathway in the presence of an antagonist - cell viability counter screen (AID 1259386); conditions: VM7Luc4E2 viability, CellTiter-Fluor fluorescence, 22 h; series mostly up to 92.4 µM;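 note: potency is the fitted concentration of half-maximal effect; cells exposed to compounds for 22 h at 37 °C before the viability read; nearly all actives have a fitted effect of over 30% in size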
In short: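 ICI-182,780 at 10.0nM final accompanies the compound titration (15 concentrations, 22hr, 37C) on VM7Luc4E2 cells. The CellTiter-Fluor fluorescence readout runs in the same wells as the luciferase assay.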

CC(C)OP(=S)(OC(C)C)SCCNS(=O)(=O)c1ccccc1
active: Potency [1] 30.6 µM | Potency (Aromatase (Homo sapiens)) 68.6 µM | Potency [2] 43.6 µM | Potency [3] 61.1 µM | Potency [4] 68.6 µM | Potency [5] 30.6 µM | Potency [6] 21.9 µM | Potency [7] 30.6 µM

CCOP(=O)(CC)Oc1ccc([N+](=O)[O-])cc1 (configuration not stated)
active: Potency [8] 11.9 µM
inactive: Potency [9]

CCOC(=O)Cl
inactive: activity, negative = inhibition [10] -1.49%

Cc1cc([N+](=O)[O-])c(O)c([N+](=O)[O-])c1
active: Potency [11] 30.9 µM | Potency [12] 49.1 µM | Potency [13] 49.1 µM | Potency [14] 30.9 µM | Potency [15] 30.9 µM | Potency [16] 49.1 µM
